Data set [1] addresses human growth hormone secretagogue receptor (hGHS-R1a) (Homo sapiens, UniProt Q92847). Description: Competitive radioligand binding assay (ghrelin receptor), [125I]-ghrelin displacement on GHS-R/HEK 293 membranes. Conditions: for binding potency of linear (not cyclized) analogues: linear analogues of compounds 10 and 133.
The target of data set [2] is human ghrelin receptor (hGHS-R1a) (Homo sapiens, UniProt Q92847). The format is cell-based. Conditions: functional (agonist) activity, standard method; TFA salts unless otherwise noted.
The target in data set [3] is motilin receptor (Homo sapiens, UniProt O43193). In words: Selectivity for the ghrelin receptor versus the motilin receptor. The format is binding.
In data set [4] the test system is gastric emptying in fasted rats. In words: Gastric emptying in fasted rats (phenol red methylcellulose meal). The format is in vivo, rat.
In data set [5] the test system is rats with post-operative ileus (POI). In kind it is in vivo, rat.
In data set [6] the test system is growth hormone (GH) release. Description: Growth hormone response to test compounds in conscious, freely-moving rats (plasma GH by RIA).
Data set [7] deals with morphine-treated rats. In words: Model of opioid-delayed gastric emptying and gastrointestinal transit (morphine) in rats. Conditions: morphine 3 mg/kg s.c., test compound 300 or 1000 μg/kg i.v., FIG. 16B.
Data set [8] in a line: Metabolic stability in human plasma (37° C.). The format is in vitro ADME. Conditions: free amine or salt, with or without PBS buffering.
Data set [9] deals with cyp450 enzymes. As to conditions: 0.0457 to 100 μM.
The mark [10] stands for this setting: binding activity at the human ghrelin receptor, [125I]-ghrelin competition, GHS-R/HEK 293 membranes.
Where [11] appears, read: binding activity, standard method, TFA salts unless otherwise noted.
[12] abbreviates: read-out: Binding Activity at the Human Ghrelin Receptor, [125I]-ghrelin competition, GHS-R/HEK 293 membranes, Table 3A.
The mark [13] stands for this setting: binding activity at the human ghrelin receptor, [125I]-ghrelin displacement.

Chains of the proteins cited; added tags and fusions are not shown.
UniProt Q92847, whole entry: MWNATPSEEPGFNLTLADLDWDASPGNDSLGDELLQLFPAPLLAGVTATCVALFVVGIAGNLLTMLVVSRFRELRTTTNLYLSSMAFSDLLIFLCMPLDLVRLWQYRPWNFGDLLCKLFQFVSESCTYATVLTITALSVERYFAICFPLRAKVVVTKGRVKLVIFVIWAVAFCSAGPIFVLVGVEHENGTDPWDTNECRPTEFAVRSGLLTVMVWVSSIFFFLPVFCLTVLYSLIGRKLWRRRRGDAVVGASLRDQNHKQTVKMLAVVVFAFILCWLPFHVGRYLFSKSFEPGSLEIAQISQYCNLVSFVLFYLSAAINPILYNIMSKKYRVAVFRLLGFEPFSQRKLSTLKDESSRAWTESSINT
UniProt O43193, whole entry: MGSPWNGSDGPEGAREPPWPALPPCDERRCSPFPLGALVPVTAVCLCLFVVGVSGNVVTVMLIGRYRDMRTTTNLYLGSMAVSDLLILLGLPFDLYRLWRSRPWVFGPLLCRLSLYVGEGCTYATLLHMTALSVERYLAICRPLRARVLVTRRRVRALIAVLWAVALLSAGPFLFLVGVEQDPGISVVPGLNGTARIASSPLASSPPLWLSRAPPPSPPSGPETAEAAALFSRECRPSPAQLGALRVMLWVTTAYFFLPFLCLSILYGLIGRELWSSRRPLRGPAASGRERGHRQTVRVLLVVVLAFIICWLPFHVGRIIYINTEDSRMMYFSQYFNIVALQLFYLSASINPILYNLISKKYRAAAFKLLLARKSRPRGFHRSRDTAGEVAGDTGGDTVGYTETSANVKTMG

The term EC50 denotes the concentration needed to bring the measured effect to its halfway point.

Read-outs that look alike come from different tables or passages of the source.

With `CCC(C)[C@@H]1NCCCc2ccccc2C=CCNC(=O)[C@@H](Cc2ccccc2)NC(=O)[C@@H](C)N(C)C1=O` (some centres unmarked), the Ki in data set [1] (setting [10]) and in [1] (setting [11]) was 10 to 100 nM in each case. For the same molecule, the half-maximal effective concentration (EC50) in data set [2] lay in the range of 1 to 100 nM. Moreover, the Selectivity in [3] is recorded as >800/1. In the case of `CC(C)C[C@@H]1NCCOc2ccccc2/C=C/CNC(=O)[C@H](Cc2ccncc2)NC(=O)C2(CCCC2)NC1=O`, the Ki in data set [1] (setting [12]) lay within 1000 to 10000 nM. `CC[C@H](C)[C@@H]1NCCOc2ccccc2/C=C/CNC(=O)[C@@H](COCc2ccccc2)NC(=O)[C@@H](C)N(C)C1=O`: the Ki in data set [1] (setting [13]) lay within 100 to 1000 nM. Take `CCC(C)[C@@H]1NC[C@@H](C)Oc2ccccc2CCCNC(=O)[C@H](Cc2cccc(Cl)c2)NC(=O)C2(CCCC2)NC1=O` (some centres unmarked): the Ki in [1] (setting [11]) is 0.1 to 10 nM. For the same molecule, the EC50 in [2] is greater than 1000 nM. Regarding `CCC(C)[C@@H]1NC[C@@H](C)Oc2ccccc2CCCNC(=O)[C@@H](Cc2ccccc2)NC(=O)[C@@H](C)N(C)C1=O` (some centres unmarked), the Ki in data set [1] (setting [10]) and in data set [1] (setting [11]) was 10 to 100 nM in each case. The EC50 in data set [2] fell in the range of 1 to 100 nM. Consider `C[C@@H]1CN[C@@H](C2CC2)C(=O)N(C)[C@H](C)C(=O)N[C@H](Cc2ccc(F)cc2)C(=O)NCCCc2ccccc2O1`, for which the “gastric emptying of a solid meal in naïve rat” value in data set [4] (i.v. immediately after meal, FIG. 14) was “significant gastric emptying in a dose-dependent manner”. The “potency on gastric emptying superior to metoclopramide” value in data set [4] (naïve rats, i.v., FIG. 14B) came to 100 fold. Further, in data set [5] (100 μg/kg i.v., n=5, FIG. 8), the “effect on postoperative ileus in comparison to POI+vehicle treated rats” value was “significantly improves postoperative ileus”. In addition, the “gastric emptying and intestinal transit in POI rats” value in data set [5] (100 and 300 μg/kg (i.v.)) is “significantly increased gastric emptying and intestinal transit”. Besides, the IGF-1 levels result in data set [6] (1000 μg/kg dose) was “No changes in IGF-1 levels”. Further, in data set [6] (FIG. 9), the “effect on GH release” value is “lack of effect on GH release”. Further, the “effect on ghrelin-induced GH release” value in data set [6] (dosed 10 min. prior to ghrelin) is “neither inhibits nor augments ghrelin-induced GH release”. Also, the “pulsatile GH release in comparison to vehicle controls” value in data set [6] (i.v., doses up to 1000 μg/kg) is “no significant difference in pulsatile GH release”. In addition, the opioid-delayed gastrointestinal transit entry in data set [7] is on record as “effectively reversed in a dose-dependent manner”. Moreover, the “stable in human plasma at 37° C. for” value in [8] is reported as “at least 24 hours”. For the same molecule, the “inhibitory activity at cyp450 enzymes tested, except cyp3A4” value in data set [9] is listed as “minimal inhibitory activity”. The molecule `CC[C@H](C)[C@@H]1NCCOc2ccccc2/C=C/CNC(=O)[C@H](Cc2cc(F)cc(F)c2)NC(=O)C2(CCCC2)NC1=O` had a Ki in data set [1] (setting [13]) of 10 to 100 nM.

In the case of `CCC(C)[C@@H]1NCCCc2ccccc2/C=C/CNC(=O)[C@@H](Cc2ccc(F)cc2)NC(=O)[C@@H](C)N(C)C1=O` (some centres unmarked), the Ki in data set [1] (setting [13]) lay within 10 to 100 nM. In turn, `CCC[C@@H]1NCCOc2ccccc2CCCNC(=O)[C@@H](Cc2ccccc2)NC(=O)[C@H](C)N(C)C1=O` returned a Ki in data set [1] (setting [10]) of 100 to 1000 nM. In turn, `CCC(C)C1NCCOc2ccccc2/C=C/CNC(=O)C(Cc2ccc(F)c(F)c2)NC(=O)C2(CCCC2)NC1=O` (centres unmarked) registered a Ki in data set [1] (setting [13]) of 100 to 1000 nM. The molecule `CCC(C)C1NCCOc2ccccc2/C=C/CNC(=O)C(Cc2cc(F)cc(F)c2)NC(=O)C2(CCCC2)NC1=O` (centres unmarked) gave a Ki in data set [1] (setting [13]) of 100 to 1000 nM. `CC(=O)N(CCOc1ccccc1CCCN)[C@@H](CC(C)C)C(=O)NC1(C(=O)N[C@@H](Cc2ccccc2)C(N)=O)CCCC1` had a Ki in data set [1] (setting [10]) greater than 10000 nM. Moreover, the “binding potency of linear (not cyclized) analogues” value in data set [1] is reported as “lack of binding potency”. Regarding `CC[C@H](C)[C@@H]1NC[C@H](C)Oc2ccccc2CCCNC(=O)[C@H](Cc2cccc(Cl)c2)NC(=O)C2(CCCC2)NC1=O`, in data set [1] (setting [13]), the Ki lay within 100 to 1000 nM. Also, in data set [3], the Selectivity was 300/1. Take `CC(C)C[C@@H]1NCCOc2ccccc2/C=C/CNC(=O)[C@H](Cc2cccnc2)NC(=O)C2(CCCC2)NC1=O`: the Ki in [1] (setting [12]) was greater than 1000 nM. In the case of `CC(C)[C@@H]1NCCOc2ccccc2/C=C\CNC(=O)[C@H](Cc2ccccc2)NC(=O)C2(CCOC2)NC1=O` (single isomer, unassigned), the Ki in data set [1] (setting [10]) and in data set [1] (setting [11]) was 100 to 1000 nM throughout. For `CCC[C@@H](C(=O)N(C)CC(=O)N[C@H](Cc1ccccc1)C(N)=O)N(CCOc1ccccc1CCCN)C(C)=O`, the Ki in [1] (setting [10]) was greater than 10000 nM. Besides, the “binding potency of linear (not cyclized) analogues” value in data set [1] was “lack of binding potency”.

Regarding `CCC(C)C1NCCOc2ccccc2/C=C/CNC(=O)C(Cc2ccccc2)NC(=O)C2(CCCC2)NC1=O` (centres unmarked), the Ki in [1] (setting [12]) lay in the range of 10 to 100 nM. In turn, `CCC(C)C1NCCOc2ccccc2/C=C/CNC(=O)C(COCc2ccccc2)NC(=O)C(C)N(C)C1=O` (centres unmarked) registered a Ki in data set [1] (setting [13]) of 100 to 1000 nM. `CC[C@@H](C)[C@@H]1NCCOc2ccccc2/C=C/CNC(=O)[C@H](Cc2ccccc2)NC(=O)C2(CCCC2)NC1=O`: the Ki in data set [1] (setting [12]) is 10 to 100 nM.

In the case of `CC(C)CC1NCCOc2ccccc2/C=C/CNC(=O)C(Cc2cccnc2)NC(=O)C2(CCCC2)NC1=O` (centres unmarked), the Ki in data set [1] (setting [12]) was greater than 1000 nM.

`CCC(C)[C@@H]1NCCOc2ccccc2/C=C/CNC(=O)[C@H](Cc2ccc(F)c(F)c2)NC(=O)C2(CCCC2)NC1=O` (some centres unmarked) had a Ki in data set [1] (setting [13]) of 10 to 100 nM.

For `CC(C)CC1NCCOc2ccccc2/C=C/CNC(=O)C(Cc2ccncc2)NC(=O)C2(CCCC2)NC1=O` (centres unmarked), the Ki in data set [1] (setting [12]) was greater than 10000 nM. On to `CC[C@H](C)[C@@H]1NCC(C)Oc2ccccc2CCCNC(=O)[C@@H](Cc2ccccc2)NC(=O)[C@@H](C)N(C)C1=O` (some centres unmarked), for which the Ki in [1] (setting [10]) and in [1] (setting [11]) was 10 to 100 nM in each case. The EC50 in data set [2] was in the range of 100 to 1000 nM. As for `CC(C)[C@@H]1NCCOc2ccccc2/C=C/CNC(=O)[C@H](Cc2ccccc2)NC(=O)C2(CCOC2)NC1=O` (some centres unmarked), in data set [1] (setting [13]), the Ki was in the range of 10 to 100 nM. As to `CC(C)C[C@@H]1NCC/C=C/CCNC(=O)[C@H](Cc2ccccc2)NC(=O)C2(CCCC2)NC1=O`, the Ki in data set [1] (setting [10]) was greater than 10000 nM. Molecule `CC[C@H](C)[C@@H]1NCCCCC=CCCNC(=O)[C@H](Cc2cccc(Cl)c2)NC(=O)C2(CCCC2)NC1=O` yielded a Ki in data set [1] (setting [13]) of 100 to 1000 nM. `CC[C@H](C)[C@@H]1NCCCc2ccccc2/C=C/CNC(=O)[C@H](Cc2cccc(Cl)c2)NC(=O)C2(CCCC2)NC1=O`: the Ki in [1] (setting [13]) and in data set [1] (setting [11]) was 10 to 100 nM throughout. The concentration giving a half-maximal response (EC50) in data set [2] is 1 to 100 nM. For `CC1CN[C@@H](C2CC2)C(=O)N(C)[C@H](C)C(=O)N[C@H](Cc2ccc(F)cc2)C(=O)NCCCc2ccccc2O1` (some centres unmarked), the EC50 in data set [2] lay in the range of 1 to 100 nM. For the molecule `CC(C)C[C@@H]1NCCOc2ccccc2CCCNC(=O)CNC(=O)C2(CCCC2)NC1=O`, in data set [1] (setting [10]), the Ki was greater than 10000 nM.

`CCC(C)C1NCCOc2ccccc2/C=C/CNC(=O)C(Cc2cccc(Cl)c2)NC(=O)C2(CCCC2)NC1=O` (centres unmarked) displayed a Ki in data set [1] (setting [13]) of 10 to 100 nM. In turn, `CC(C)[C@@H]1NCCOc2ccccc2/C=C/CNC(=O)[C@H](Cc2ccccc2)NC(=O)[C@@H](C)N(C)C1=O` came in with a Ki in data set [1] (setting [10]) of 0.1 to 10 nM.

On to `C[C@@H]1C(=O)N[C@H](Cc2ccc(F)cc2)C(=O)NCCCc2ccc(F)cc2OCCN[C@@H](C2CC2)C(=O)N1C`, for which the Selectivity in data set [3] was 2500/1. `CCC(C)C1NCCOc2ccccc2/C=C/CNC(=O)C(Cc2cccc(C(F)(F)F)c2)NC(=O)C2(CCCC2)NC1=O` (centres unmarked) came in with a Ki in data set [1] (setting [13]) of 100 to 1000 nM.

In the case of `O=C1NC/C=C/c2ccccc2OCCNC2(CCCCC2)C(=O)NC2(CCCC2)C(=O)N[C@H]1Cc1ccccc1`, in data set [1] (setting [12]), the Ki was 10 to 100 nM. For the molecule `CCC(C)[C@@H]1NCCOc2ccccc2/C=C/CNC(=O)[C@H](Cc2ccc(Cl)c(Cl)c2)NC(=O)C2(CCCC2)NC1=O` (some centres unmarked), in data set [1] (setting [13]), the Ki is 0.1 to 10 nM.

For the origin of these results see patent publication US20060025566A1.
